Source: article PMC11079024, “Identification of a family of species-selective complex I inhibitors as potential anthelmintics” (Nature Communications, 2024)
Where “and” joins values, the source holds several entries; their conditions need not be identical. Equal values may be shown once. Read-outs that look alike come from different tables or passages of the source.

Chains of the proteins cited; added tags and fusions are not shown. Lines headed by an entry give the natural chain unless they say otherwise; changes in a name come on top. Residues count along the entry.
UniProt P24887: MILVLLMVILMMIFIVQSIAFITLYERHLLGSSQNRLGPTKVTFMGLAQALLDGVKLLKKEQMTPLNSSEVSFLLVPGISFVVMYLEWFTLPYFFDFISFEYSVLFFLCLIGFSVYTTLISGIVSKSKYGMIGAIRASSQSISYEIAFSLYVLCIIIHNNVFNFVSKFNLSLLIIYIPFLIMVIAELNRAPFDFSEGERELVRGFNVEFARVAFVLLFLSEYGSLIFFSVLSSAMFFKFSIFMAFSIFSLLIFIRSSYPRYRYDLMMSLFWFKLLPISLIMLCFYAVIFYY
UniProt Q93873, 31-482: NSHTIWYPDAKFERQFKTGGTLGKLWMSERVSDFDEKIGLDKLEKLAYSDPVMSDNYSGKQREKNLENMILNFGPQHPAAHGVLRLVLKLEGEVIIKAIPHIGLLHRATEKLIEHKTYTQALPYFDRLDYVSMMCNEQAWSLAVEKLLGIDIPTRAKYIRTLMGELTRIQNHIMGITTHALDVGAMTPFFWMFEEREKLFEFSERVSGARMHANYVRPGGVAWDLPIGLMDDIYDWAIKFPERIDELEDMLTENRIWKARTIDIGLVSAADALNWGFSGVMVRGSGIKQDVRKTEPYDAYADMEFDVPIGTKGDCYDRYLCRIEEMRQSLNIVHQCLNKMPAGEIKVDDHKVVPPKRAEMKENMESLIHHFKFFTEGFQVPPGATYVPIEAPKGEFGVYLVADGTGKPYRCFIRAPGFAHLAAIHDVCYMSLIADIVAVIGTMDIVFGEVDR
UniProt Q94360, 17-199: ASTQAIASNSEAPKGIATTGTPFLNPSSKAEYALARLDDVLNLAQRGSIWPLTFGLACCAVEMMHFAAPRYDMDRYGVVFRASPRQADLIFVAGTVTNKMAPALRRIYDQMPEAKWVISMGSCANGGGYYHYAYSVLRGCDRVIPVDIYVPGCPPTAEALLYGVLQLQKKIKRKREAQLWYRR
UniProt O75251, 39-213: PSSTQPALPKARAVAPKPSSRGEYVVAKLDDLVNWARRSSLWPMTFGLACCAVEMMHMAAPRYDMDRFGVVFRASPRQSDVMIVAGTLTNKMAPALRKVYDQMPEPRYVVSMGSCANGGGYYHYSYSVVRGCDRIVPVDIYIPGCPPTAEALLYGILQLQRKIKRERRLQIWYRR
UniProt O75306, 34-463: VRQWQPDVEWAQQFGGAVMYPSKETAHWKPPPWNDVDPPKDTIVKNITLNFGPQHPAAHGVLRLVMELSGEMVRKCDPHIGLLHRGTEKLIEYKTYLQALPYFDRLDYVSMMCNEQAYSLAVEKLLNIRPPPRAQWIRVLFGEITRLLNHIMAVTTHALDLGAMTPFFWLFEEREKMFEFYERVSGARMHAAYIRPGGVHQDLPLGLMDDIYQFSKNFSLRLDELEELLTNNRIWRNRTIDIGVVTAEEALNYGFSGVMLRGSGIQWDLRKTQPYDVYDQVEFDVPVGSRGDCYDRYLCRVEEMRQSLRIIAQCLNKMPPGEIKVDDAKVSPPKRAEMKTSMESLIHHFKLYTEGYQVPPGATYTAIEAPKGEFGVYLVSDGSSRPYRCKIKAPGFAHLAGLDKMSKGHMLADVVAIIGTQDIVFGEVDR
UniProt P03886, whole entry: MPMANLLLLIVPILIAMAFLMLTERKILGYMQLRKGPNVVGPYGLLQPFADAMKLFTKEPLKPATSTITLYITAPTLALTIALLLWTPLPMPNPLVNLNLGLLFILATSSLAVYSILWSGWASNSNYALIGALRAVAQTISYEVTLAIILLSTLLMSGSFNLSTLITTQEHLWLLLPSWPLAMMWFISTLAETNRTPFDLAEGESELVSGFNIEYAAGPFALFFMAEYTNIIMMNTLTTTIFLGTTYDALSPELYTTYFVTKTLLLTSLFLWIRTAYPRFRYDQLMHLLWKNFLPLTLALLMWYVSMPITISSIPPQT

Assays:
[1] = target: C. elegans (N2) complex I (NADH:ubiquinone oxidoreductase) (Caenorhabditis elegans, UniProt P24887+Q93873+Q94360); assay: biochemical; format: biochemical; settings: for percent in vitro complex I activity relative to solvent control, single replicates / in vitro complex I activity relative to solvent control, individual replicate: wild-type C. elegans; for percent in vitro complex I activity relative to solvent control, single replicates: individual Rep1-Rep4; for percent (%) in vitro complex I activity relative to solvent control / in vitro complex I activity relative to solvent control, individual replicate: single replicate
[2] = target: H. sapiens (HEK293 cells) complex I (Homo sapiens, UniProt O75251+O75306+P03886); assay: In vitro complex I activity assay, HEK293 cell mitochondria; format: biochemical; settings: single replicate

Compound: CC(C)Cc1ccc(C(C)c2nc3ccccc3n2C)cc1 (stereo not drawn) [NPD8790]
- percent in vitro complex I activity relative to solvent control, single replicates ([1]; 0.0001 µM): 97.870% and 95.739% and 92.719%
- percent in vitro complex I activity relative to solvent control, single replicates ([1]; 0.0005 µM): 90.969% and 97.532% and 92.512%
- percent in vitro complex I activity relative to solvent control, single replicates ([1]; 0.001 µM): 83.219% and 91.266% and 96.839%
- percent in vitro complex I activity relative to solvent control, single replicates ([1]; 0.0025 µM): 90.827% and 101.498% and 95.636%
- percent in vitro complex I activity relative to solvent control, single replicates ([1]; 0.005 µM): 86.940% and 98.013% and 97.085%
- percent in vitro complex I activity relative to solvent control, single replicates ([1]; 0.013 µM): 96.926% and 100.438% and 126.374% and 98.338%
- percent in vitro complex I activity relative to solvent control, single replicates ([1]; 0.025 µM): 91.986% and 102.062% and 97.044%
- percent in vitro complex I activity relative to solvent control, single replicates ([1]; 0.063 µM): 107.116% and 82.196% and 89.540% and 103.686%
- percent (%) in vitro complex I activity relative to solvent control ([1]; 0.125 µM, N2 wild-type mitochondria, Fig. 4d data set): 95.717% and 104.220% and 103.057% and 85.253% and 97.270%
- percent (%) in vitro complex I activity relative to solvent control ([1]; 0.125 µM, wild-type C. elegans mitochondria): 97.270%
- percent in vitro complex I activity relative to solvent control, single replicates ([1]; 0.125 µM): 85.253% and 97.270% and 89.801%
- percent (%) in vitro complex I activity relative to solvent control ([1]; 0.313 µM, N2 wild-type mitochondria, Fig. 4d data set): 85.173% and 99.628% and 103.925% and 106.363% and 71.287% and 78.952%
- percent (%) in vitro complex I activity relative to solvent control ([1]; 0.313 µM, wild-type C. elegans mitochondria): 78.952% and 113.711%
- percent in vitro complex I activity relative to solvent control, single replicates ([1]; 0.313 µM): 71.287% and 78.952% and 90.969%
- percent (%) in vitro complex I activity relative to solvent control ([1]; 0.625 µM, N2 wild-type mitochondria, Fig. 4d data set): 92.700% and 94.786% and 94.946% and 107.174% and 89.930% and 79.859%
- percent (%) in vitro complex I activity relative to solvent control ([1]; 0.625 µM, wild-type C. elegans mitochondria): 79.859% and 81.110%
- percent in vitro complex I activity relative to solvent control, single replicates ([1]; 0.625 µM): 89.930% and 79.859% and 64.888%
- percent (%) in vitro complex I activity relative to solvent control ([1]; 1.5 µM, N2 wild-type mitochondria, Fig. 4d data set): 90.096% and 79.702% and 84.446% and 77.043% and 77.079% and 65.007%
- percent (%) in vitro complex I activity relative to solvent control ([1]; 1.5 µM, wild-type C. elegans mitochondria): 85.561% and 65.007% and 66.965%
- percent in vitro complex I activity relative to solvent control, single replicates ([1]; 1.5 µM): 85.561% and 77.079% and 65.007% and 53.572%
- percent (%) in vitro complex I activity relative to solvent control ([1]; 3 µM, N2 wild-type mitochondria, Fig. 4d data set): 67.855% and 64.339% and 74.730% and 68.247% and 50.593% and 43.869%
- percent (%) in vitro complex I activity relative to solvent control ([1]; 3 µM, wild-type C. elegans mitochondria): 63.902% and 43.869% and 49.754%
- percent in vitro complex I activity relative to solvent control, single replicates ([1]; 3 µM): 63.902% and 50.593% and 43.869% and 39.804%
- percent (%) in vitro complex I activity relative to solvent control ([1]; 7.5 µM, N2 wild-type mitochondria, Fig. 4d data set): 29.825% and 31.471% and 31.992% and 31.566% and 29.179% and 11.826%
- percent (%) in vitro complex I activity relative to solvent control ([1]; 7.5 µM, wild-type C. elegans mitochondria): 26.429% and 11.826% and 16.504%
- percent in vitro complex I activity relative to solvent control, single replicates ([1]; 7.5 µM): 26.429% and 29.179% and 11.826% and 13.203%
- percent (%) in vitro complex I activity relative to solvent control ([1]; 15 µM, N2 wild-type mitochondria, Fig. 4d data set): 8.829% and 13.873% and 13.052% and 7.424% and 9.250% and 1.000%
- percent (%) in vitro complex I activity relative to solvent control ([1]; 15 µM, wild-type C. elegans mitochondria): 18.930% and 1.000% and 3.561%
- percent in vitro complex I activity relative to solvent control, single replicates ([1]; 15 µM): 18.930% and 9.250% and 1.000% and 2.848%
- percent (%) in vitro complex I activity relative to solvent control ([1]; 37.5 µM, N2 wild-type mitochondria, Fig. 4d data set): 6.621% and 10.335% and 5.250% and 2.308% and 3.323% and 2.205%
- percent (%) in vitro complex I activity relative to solvent control ([1]; 37.5 µM, wild-type C. elegans mitochondria): 4.585% and 2.205% and 4.866%
- percent in vitro complex I activity relative to solvent control, single replicates ([1]; 37.5 µM): 4.585% and 3.323% and 2.205% and 3.893%
- remaining activity at 75 µM ([1]; 75 µM, wild-type C. elegans mitochondria, mean of replicates, read-out: percent (%) in vitro complex I activity relative to solvent control): 12.3%
- percent (%) in vitro complex I activity relative to solvent control ([1]; 75 µM, wild-type C. elegans mitochondria): 5.354% and 12.186% and 19.314%
- percent in vitro complex I activity relative to solvent control, single replicates ([1]; 75 µM): 5.354% and 20.312% and 12.186% and 15.451%
- remaining activity at 75 µM ([1]; C. elegans mitochondria, 75 µM, Mean of replicates, read-out: in vitro complex I activity relative to solvent control): 12.3%
- remaining activity at 75 µM ([1]; C. elegans mitochondria, 75 µM, Mean, read-out: in vitro complex I activity relative to solvent control): 12.3%
- activity at 0.013 µM ([1]; C. elegans, dose 0.013 µM, Mean of replicates, read-out: Complex I activity, dose-response data): 115%
- activity at 75 µM ([1]; C. elegans, dose 75 µM, Mean of replicates, read-out: Complex I activity, dose-response data): 12.3%
- in vitro complex I activity relative to solvent control, individual replicate ([1]; dose 0.0001 µM): 97.870% and 95.739% and 92.719%
- in vitro complex I activity relative to solvent control, individual replicate ([1]; dose 0.0005 µM): 90.969% and 97.532% and 92.512%
- in vitro complex I activity relative to solvent control, individual replicate ([1]; dose 0.001 µM): 83.219% and 91.266% and 96.839%
- in vitro complex I activity relative to solvent control, individual replicate ([1]; dose 0.0025 µM): 90.827% and 101.498% and 95.636%
- in vitro complex I activity relative to solvent control, individual replicate ([1]; dose 0.005 µM): 86.940% and 98.013% and 97.085%
- in vitro complex I activity relative to solvent control, individual replicate ([1]; dose 0.013 µM): 96.926% and 100.438% and 126.374% and 98.338%
- in vitro complex I activity relative to solvent control, individual replicate ([1]; dose 0.025 µM): 91.986% and 102.062% and 97.044%
- in vitro complex I activity relative to solvent control, individual replicate ([1]; dose 0.063 µM): 107.116% and 82.196% and 89.540% and 103.686%
- in vitro complex I activity relative to solvent control, individual replicate ([1]; dose 0.125 µM): 85.253% and 97.270% and 89.801%
- in vitro complex I activity relative to solvent control, individual replicate ([1]; dose 0.313 µM): 71.287% and 78.952% and 90.969%
- in vitro complex I activity relative to solvent control, individual replicate ([1]; dose 0.625 µM): 89.930% and 79.859% and 64.888%
- in vitro complex I activity relative to solvent control, individual replicate ([1]; dose 1.5 µM): 85.561% and 77.079% and 65.007% and 53.572%
- in vitro complex I activity relative to solvent control, individual replicate ([1]; dose 3 µM): 63.902% and 50.593% and 43.869% and 39.804%
- in vitro complex I activity relative to solvent control, individual replicate ([1]; dose 7.5 µM): 26.429% and 29.179% and 11.826% and 13.203%
- in vitro complex I activity relative to solvent control, individual replicate ([1]; dose 15 µM): 18.930% and 9.250% and 1.000% and 2.848%
- in vitro complex I activity relative to solvent control, individual replicate ([1]; dose 37.5 µM): 4.585% and 3.323% and 2.205% and 3.893%
- in vitro complex I activity relative to solvent control, individual replicate ([1]; dose 75 µM): 5.354% and 20.312% and 12.186% and 15.451%
- in vitro complex I activity relative to solvent control ([2]; 0.06 µM): 133.652% and 18.730% and 118.393% and 94.784% and 85.196%
- in vitro complex I activity relative to solvent control ([2]; 0.13 µM): 109.547% and 0.000% and 97.040% and 99.568% and 85.384%
- in vitro complex I activity relative to solvent control ([2]; 0.313 µM): 97.852% and 7.329% and 86.681% and 92.836% and 98.710%
- in vitro complex I activity relative to solvent control ([2]; 0.625 µM): 170.320% and 152.508% and 112.349% and 110.727% and 101.313%
